Values of other authors in publication PMC3807576 (ACS medicinal chemistry letters, 2013).

The chains behind the UniProt entries cited, without tags or fusion partners. Residues count along the entry.
UniProt P29317, 24-976: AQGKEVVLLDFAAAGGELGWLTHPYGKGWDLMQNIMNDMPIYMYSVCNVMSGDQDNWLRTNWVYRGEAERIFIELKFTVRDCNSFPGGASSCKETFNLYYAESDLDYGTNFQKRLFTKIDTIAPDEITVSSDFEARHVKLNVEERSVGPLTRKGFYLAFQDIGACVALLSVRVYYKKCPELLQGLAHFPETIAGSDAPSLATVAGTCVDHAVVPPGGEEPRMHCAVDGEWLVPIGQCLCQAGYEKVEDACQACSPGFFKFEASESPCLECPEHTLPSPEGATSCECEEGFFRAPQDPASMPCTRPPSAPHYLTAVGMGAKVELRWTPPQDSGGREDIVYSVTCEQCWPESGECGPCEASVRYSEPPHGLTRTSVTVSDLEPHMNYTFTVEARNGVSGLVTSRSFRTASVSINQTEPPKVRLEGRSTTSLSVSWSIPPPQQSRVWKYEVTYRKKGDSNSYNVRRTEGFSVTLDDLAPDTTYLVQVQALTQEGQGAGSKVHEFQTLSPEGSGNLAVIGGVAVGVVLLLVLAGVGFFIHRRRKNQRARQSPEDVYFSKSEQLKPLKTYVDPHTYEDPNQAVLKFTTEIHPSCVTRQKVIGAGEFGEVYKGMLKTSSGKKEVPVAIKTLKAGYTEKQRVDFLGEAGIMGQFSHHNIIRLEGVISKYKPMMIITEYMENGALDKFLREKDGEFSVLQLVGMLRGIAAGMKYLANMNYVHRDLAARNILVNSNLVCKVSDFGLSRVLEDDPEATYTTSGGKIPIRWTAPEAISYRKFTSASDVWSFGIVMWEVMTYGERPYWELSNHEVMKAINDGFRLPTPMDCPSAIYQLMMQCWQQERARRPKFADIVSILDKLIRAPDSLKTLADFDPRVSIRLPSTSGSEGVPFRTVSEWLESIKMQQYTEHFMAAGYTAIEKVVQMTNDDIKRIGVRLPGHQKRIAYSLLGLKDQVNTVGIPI

What was measured:
[1] = system: Erk1/2 MAP kinases and Akt; conditions: PC3 prostate cancer cells, 50 μM
EphA2 = EphA2 (Homo sapiens, UniProt P29317)

| Sequence | downstream inhibition of Erk1/2 MAP kinases and Akt [1] | selectivity of binding among Eph receptors (EphA2) | binding affinity (EphA2; depending on the addition of linkers, biotin and other groups) |
| --- | --- | --- | --- |
| SWLAYPGAVSYR | downstream inhibition of Erk1/2 MAP kinases and Akt |  |  |
| YSAYPDSVPMMS |  | bind in a selective manner to EphA2 and not other Eph receptors | low micromolar to submicromolar |
